Laboratory results from US20120258108A1 (AbbVie / Abbott, published 2012).

By UniProt entry, the sequences of proteins in these tests, tags left out. Residues count along the entry.
UniProt Q9NR61, 27-524 limits assumed: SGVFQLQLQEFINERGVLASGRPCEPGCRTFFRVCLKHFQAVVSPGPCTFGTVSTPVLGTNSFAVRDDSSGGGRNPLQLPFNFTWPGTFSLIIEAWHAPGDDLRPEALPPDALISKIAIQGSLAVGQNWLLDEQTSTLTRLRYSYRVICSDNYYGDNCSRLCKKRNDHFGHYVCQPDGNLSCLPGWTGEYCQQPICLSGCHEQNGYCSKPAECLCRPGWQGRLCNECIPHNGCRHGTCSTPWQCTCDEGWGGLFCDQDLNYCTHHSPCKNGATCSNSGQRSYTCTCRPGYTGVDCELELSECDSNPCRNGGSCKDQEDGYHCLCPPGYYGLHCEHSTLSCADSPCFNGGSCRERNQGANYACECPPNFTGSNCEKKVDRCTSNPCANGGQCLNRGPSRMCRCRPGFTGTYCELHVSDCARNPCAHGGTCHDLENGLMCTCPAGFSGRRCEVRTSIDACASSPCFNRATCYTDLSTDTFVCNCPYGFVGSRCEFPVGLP

Molecular target: Recombinant Human DLL4 (human, UniProt Q9NR61 27-524)
Experiment: SPR (BIACORE)
Description: The BIACORE assay (Biacore, Inc, Piscataway, N.J.) determines the affinity of antibodies or DVD-Ig with kinetic measurements of on-rate and off-rate constants. Binding of antibodies or DVD-Ig to a target antigen (for example, a purified recombinant target antigen) was determined by surface plasmon resonance-based measurements with a Biacore® 1000 or 3000 instrument (Biacore® AB, Uppsala, Sweden) using running HBS-EP (10 mM HEPES [pH 7.4], 150 mM NaCl, 3 mM EDTA, and 0.005% surfactant P20) at 25° C. All chemicals were obtained from Biacore® AB (Uppsala, Sweden) or otherwise from a different source as described in the text. For example, approximately 5000 RU of goat anti-mouse IgG, (Fcγ), fragment specific polyclonal antibody (Pierce Biotechnology Inc, Rockford, Ill.) diluted in 10 mM sodium acetate (pH 4.5) is directly immobilized across a CM5 research grade biosensor chip using a standard amine coupling kit according to manufacturer's instructions and procedures at 25 μg/ml. Unreacted moieties on the biosensor surface are blocked with ethanolamine. Modified carboxymethyl dextran surface in flowcell 2 and 4 is used as a reaction surface. Unmodified carboxymethyl dextran without goat anti-mouse IgG in flow cell 1 and 3 is used as the reference surface. For kinetic analysis, rate equations derived from the 1:1 Langmuir binding model are fitted simultaneously to association and dissociation phases of all eight injections (using global fit analysis) with the use of Biaevaluation 4.0.1 software. Purified antibodies or DVD-Ig are diluted in HEPES-buffered saline for capture across goat anti-mouse IgG specific reaction surfaces. Antibodies or DVD-Ig to be captured as a ligand (25 μg/ml) are injected over reaction matrices at a flow rate of 5 μl/min. The association and dissociation rate constants, kₒₙ (M⁻¹ s⁻¹) and koff (s⁻¹) are determined under a continuous flow rate of 25 μl/min. Rate constants are derived by making kinetic binding measurements at different antigen concentrations ranging from 10-200 nM. The equilibrium dissociation constant (M) of the reaction between antibodies or DVD-Igs and the target antigen is then calculated from the kinetic rate constants by the following formula: KD=koff/kₒₙ. Binding is recorded as a function of time and kinetic rate constants are calculated.

Binder | Kd [nM] | koff [s⁻¹] | kon [M⁻¹ s⁻¹]
AB310 (antibody, human IgG1, kappa, V domains shown) VH: EVQLLESGGGLVQPGGSLRLSCAASGFTFSNFPMAWVRQAPGKGLEWVATISSSDGTTYYRDSVKGRFTISRDNSKNTLYLQMNSLRAEDTAVYYCARGYYNSPFAYWGQGTLVTVSS VL: EIVMTQSPGTLSLSPGERATLSCRASEDIYSNLAWYQQKPGQAPRLLIYDTNNLADGVPDRFSGSGSGTDFTLTISRLEPEDFAVFYCQQYNNYPPTFGQGTKVEIKR | 23 | 0.0031 | 130000
AB296 (antibody, V domains shown) VH: EVQLVESGGGLVQPGGSLRLSCAVSGGSISSSSYYWGWIRQAPGKGLEWIGDIYYTGSTYYNPSLKSRVTISVDTSKNTFYLQMNSLRAEDTAVYYCARQALAMGGGSDKWGQGTLVTVSS VL: DYQLTQSPSSLSASVGDRVTITCSGQRLGDKYASWYQQKPGKSPKLVIYEDSKRPSGIPSRFSGSNSGDDATLTISSLQPEDFATYYCQAWDRDTGVFGQGTKVEIKR | 1.5 | 0.00013 | 85000
